{
  "sequences": {"note": "Protein sequences, listed by entry. Tags and fused reporters are not part of them. Lines headed by an entry give the natural chain unless they say otherwise; changes in a name come on top. Residues count along the entry.", "UniProt P54289, 25-1103 limits assumed": "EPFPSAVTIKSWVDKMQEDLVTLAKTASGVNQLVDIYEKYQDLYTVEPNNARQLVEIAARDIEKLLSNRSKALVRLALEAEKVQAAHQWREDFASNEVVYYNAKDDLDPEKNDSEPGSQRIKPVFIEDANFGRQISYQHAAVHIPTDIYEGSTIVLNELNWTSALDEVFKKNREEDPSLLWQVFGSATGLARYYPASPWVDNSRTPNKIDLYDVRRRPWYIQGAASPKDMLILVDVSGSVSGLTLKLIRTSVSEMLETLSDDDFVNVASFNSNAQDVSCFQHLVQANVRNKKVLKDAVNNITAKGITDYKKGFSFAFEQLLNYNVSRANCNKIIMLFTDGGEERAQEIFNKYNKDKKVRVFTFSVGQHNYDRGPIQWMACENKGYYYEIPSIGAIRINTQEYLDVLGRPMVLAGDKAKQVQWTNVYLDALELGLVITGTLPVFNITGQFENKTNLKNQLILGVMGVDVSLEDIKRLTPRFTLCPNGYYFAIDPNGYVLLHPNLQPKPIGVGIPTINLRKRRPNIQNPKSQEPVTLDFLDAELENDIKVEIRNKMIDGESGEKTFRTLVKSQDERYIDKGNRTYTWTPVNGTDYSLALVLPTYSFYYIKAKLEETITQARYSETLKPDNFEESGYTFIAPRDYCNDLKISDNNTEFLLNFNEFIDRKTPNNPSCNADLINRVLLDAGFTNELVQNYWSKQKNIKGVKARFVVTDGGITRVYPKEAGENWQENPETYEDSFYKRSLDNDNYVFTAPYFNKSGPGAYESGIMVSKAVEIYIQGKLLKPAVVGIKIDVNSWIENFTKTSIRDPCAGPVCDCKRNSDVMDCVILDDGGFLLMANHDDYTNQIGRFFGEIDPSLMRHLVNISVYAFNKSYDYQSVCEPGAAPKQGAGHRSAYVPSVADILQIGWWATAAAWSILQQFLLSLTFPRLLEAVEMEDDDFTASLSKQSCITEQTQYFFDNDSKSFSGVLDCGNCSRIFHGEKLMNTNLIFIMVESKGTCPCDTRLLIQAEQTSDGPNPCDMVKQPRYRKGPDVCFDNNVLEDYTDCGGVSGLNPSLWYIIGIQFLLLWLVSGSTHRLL"},
  "source": "patent US10577360B2",
  "about": "“Arylamide derivatives having multimodal activity against pain” (ESTEVE PHARMACEUTICALS, S.A., priority 2016, dated 2020)",
  "note": "This is a selection: effects in other tests are not listed, and their absence says nothing.",
  "data": [
    {"target": "Human α2δ-1 subunit of Cav2.2 calcium channel (Homo sapiens (Human), UniProt P54289)", "assay": "Human α2δ-1 subunit of Cav2.2 calcium channel assay ([3H]-Gabapentin binding)", "details": "read-out: α2δ − 1 (Ki)", "units": {"Ki": "µM"}, "values": [
      {"compound": "CC(=O)Nc1cccc(-n2ccc(N(C(=O)c3cccs3)C3CCN(C)CC3)n2)c1", "Ki": "0.5 to 5"},
      {"compound": "CCOc1cccc(-n2ccc(N(C(=O)c3cccs3)C3CCN(C)CC3)n2)c1", "Ki": "0.5 to 5"},
      {"compound": "N#Cc1ccc(-n2ccc(N(C(=O)c3cccs3)C3CCN(Cc4ccccc4)CC3)n2)cc1", "Ki": "> 5"},
      {"compound": "Cn1cccc1C(=O)N(c1ccn(-c2ccc(F)cc2)n1)C1CCN(Cc2ccccc2)CC1", "Ki": "> 5"},
      {"compound": "Cc1nnc(-c2cccc(-n3ccc(N(C(=O)c4ccc(O)cc4)C4CCN(C)CC4)n3)c2)o1", "Ki": "> 5"},
      {"compound": "CN1CCC(N(C(=O)c2cccs2)c2ccn(-c3cccc(NS(C)(=O)=O)c3)n2)CC1", "Ki": "0.1 to 0.5"},
      {"compound": "O=C(c1cccs1)N(c1ccn(-c2ccncc2F)n1)C1CCN(Cc2ccccc2)CC1", "Ki": "0.5 to 5"},
      {"compound": "CN1CCC(N(C(=O)c2ccccc2)c2ccn(-c3ccccc3)n2)CC1", "Ki": "> 5"},
      {"compound": "Cc1nnc(-c2cccc(-n3ccc(N(C(=O)c4cccc(NS(C)(=O)=O)c4)C4CCN(C)CC4)n3)c2)o1", "Ki": "> 5"},
      {"compound": "COc1cc(C)cc(-n2ccc(N(C(=O)c3cccs3)C3CCN(C)CC3)n2)c1", "Ki": "0.5 to 5"},
      {"compound": "Cc1cnccc1-n1ccc(N(C(=O)c2cccs2)C2CCN(C)CC2)n1", "Ki": "0.5 to 5"},
      {"compound": "COc1cc(OC)cc(-n2ccc(N(C(=O)c3cccs3)C3CCN(C)CC3)n2)c1", "Ki": "> 5"},
      {"compound": "Cc1csc(C(=O)N(c2ccn(-c3ccccc3)n2)C2CCN(C)CC2)n1", "Ki": "> 5"},
      {"compound": "Cc1nnc(-c2cccc(-n3ccc(N(C(=O)c4nccs4)C4CCN(Cc5ccccc5)CC4)n3)c2)o1", "Ki": "0.1 to 0.5"},
      {"compound": "O=C(c1cccs1)N(c1cncc(-c2ccc(F)cc2)n1)C1CCN(Cc2ccccc2)CC1", "Ki": "0.5 to 5"},
      {"compound": "CN1CCC(N(C(=O)c2cccs2)c2ccn(-c3cccc(OC(F)(F)F)c3)n2)CC1", "Ki": "0.5 to 5"},
      {"compound": "Cc1nnc(-c2cccc(-n3ccc(N(C(=O)c4cccs4)C4CCN(CC(C)C)CC4)n3)c2)o1", "Ki": "0.5 to 5"},
      {"compound": "CN1CCC(N(C(=O)c2cccs2)c2ccn(-c3ccc(F)c(O)c3)n2)CC1", "Ki": "0.5 to 5"},
      {"compound": "O=C(c1nccs1)N(c1ccn(-c2ccc(F)cc2)n1)C1CCN(Cc2ccccc2)CC1", "Ki": "0.5 to 5"},
      {"compound": "CN1CCC(N(C(=O)c2ccc[nH]2)c2ccn(-c3ccccc3)n2)CC1", "Ki": "0.1 to 0.5"},
      {"compound": "Cc1nnc(-c2cccc(-n3ccc(N(C(=O)c4cccs4)C4CCN(CCc5ccccn5)CC4)n3)c2)o1", "Ki": "> 5"},
      {"compound": "Cc1nnc(-c2cccc(-n3ccc(N(C(=O)c4cccc(O)c4)C4CCN(C)CC4)n3)c2)o1", "Ki": "0.5 to 5"},
      {"compound": "CN1CCC(N(C(=O)c2ncccc2F)c2ccn(-c3ccccc3)n2)CC1", "Ki": "> 5"},
      {"compound": "O=C(c1cccs1)N(c1ccn(-c2ccccn2)n1)C1CCN(Cc2ccccc2)CC1", "Ki": "0.5 to 5"},
      {"compound": "CCOc1ccc(-n2ccc(N(C(=O)c3cccs3)C3CCN(Cc4ccccc4)CC3)n2)cc1", "Ki": "> 5"},
      {"compound": "CC(C)CN1CCC(N(C(=O)c2cccs2)c2ccn(-c3ccccc3)n2)CC1", "Ki": "0.5 to 5"},
      {"compound": "COc1cccc(-n2ccc(N(C(=O)c3cccs3)C3CCN(Cc4ccccn4)CC3)n2)c1", "Ki": "0.5 to 5"},
      {"compound": "CN1CCC(N(C(=O)c2cccs2)c2ccn(-c3ccccc3F)n2)CC1", "Ki": "0.5 to 5"},
      {"compound": "COc1ccc(-n2ccc(N(C(=O)c3cccs3)C3CCN(C)CC3)n2)c(Cl)c1", "Ki": "> 5"},
      {"compound": "COc1cccc(-n2ccc(N(C(=O)c3cccs3)C3CCN(Cc4cccnc4)CC3)n2)c1", "Ki": "> 5"},
      {"compound": "O=C(c1cccs1)N(c1ccn(-c2ccccc2)n1)C1CCN(Cc2ccccc2)CC1", "Ki": "0.5 to 5"},
      {"compound": "COc1cc(F)cc(-n2cc(N(C(=O)c3cccs3)C3CCN(C)CC3)cn2)c1", "Ki": "> 5"},
      {"compound": "Cc1nnc(-c2cccc(-n3ccc(N(C(=O)c4cccc(-c5ncc[nH]5)c4)C4CCN(C)CC4)n3)c2)o1", "Ki": "> 5"},
      {"compound": "COc1cccc(C(=O)N(c2ccn(-c3cccc(-c4nnc(C)o4)c3)n2)C2CCN(C)CC2)c1", "Ki": "0.5 to 5"},
      {"compound": "Cc1nnc(-c2cccc(-n3ccc(N(C(=O)c4ccns4)C4CCN(Cc5ccccc5)CC4)n3)c2)o1", "Ki": "0.1 to 0.5"},
      {"compound": "COc1ccccc1C(=O)N(c1ccn(-c2ccccc2)n1)C1CCN(C)CC1", "Ki": "> 5"},
      {"compound": "COc1ccc(-n2ccc(N(C(=O)c3cccs3)C3CCN(C)CC3)n2)cn1", "Ki": "> 5"},
      {"compound": "O=C(c1cccs1)N(c1ccn(-c2ccccc2)n1)C1CCNCC1", "Ki": "0.1 to 0.5"},
      {"compound": "COc1cccc(C(=O)N(c2ccn(-c3ccccc3)n2)C2CCN(C)CC2)c1", "Ki": "> 5"},
      {"compound": "Cc1ccccc1-n1ccc(N(C(=O)c2cccs2)C2CCN(Cc3ccccc3)CC2)n1", "Ki": "0.5 to 5"},
      {"compound": "COc1ccc(C(=O)N(c2ccn(-c3ccccc3)n2)C2CCN(Cc3ccccc3)CC2)cc1", "Ki": "> 5"},
      {"compound": "CN1CCC(N(C(=O)c2cccs2)c2ccn(-c3ccc(F)cc3)n2)CC1", "Ki": "0.5 to 5"},
      {"compound": "Cc1ccc(C(=O)N(c2ccn(-c3ccccc3)n2)C2CCN(C)CC2)cn1", "Ki": "> 5"},
      {"compound": "Cc1nnc(-c2cccc(-n3cc(N(C(=O)c4cccs4)C4CCN(C)CC4)cn3)c2)o1", "Ki": "> 5"},
      {"compound": "COc1cccc(-n2ccc(N(C(=O)c3cccs3)C3CCN(C)CC3)n2)c1", "Ki": "0.1 to 0.5"},
      {"compound": "CC(C)N1CCC(N(C(=O)c2cccs2)c2ccn(-c3ccccc3)n2)CC1", "Ki": "0.5 to 5"},
      {"compound": "O=C(c1ccco1)N(c1ncn(-c2ccccc2)n1)C1CCN(Cc2ccccc2)CC1", "Ki": "> 5"},
      {"compound": "N-(1-benzylpiperidin-4-yl)-N-(2-phenyl-2H-1,2,3-triazol-4-yl)thiophene-2-carboxamide", "Ki": "> 5"},
      {"compound": "Cc1nnc(-c2cccc(-n3ccc(N(C(=O)c4cccs4)C4CCN(Cc5ccccc5)CC4)n3)c2)o1", "Ki": "0.1 to 0.5"},
      {"compound": "Cc1cccc(F)c1C(=O)N(c1ccn(-c2ccccc2)n1)C1CCN(C)CC1", "Ki": "> 5"},
      {"compound": "CN1CCC(N(C(=O)c2cccs2)c2ccn(-c3cc(O)ccc3Cl)n2)CC1", "Ki": "> 5"},
      {"compound": "CN1CCC(N(C(=O)c2cccs2)c2ccn(-c3cccc(O)c3)n2)CC1", "Ki": "0.5 to 5"},
      {"compound": "COc1cc(-n2ccc(N(C(=O)c3cccs3)C3CCN(C)CC3)n2)ccn1", "Ki": "0.5 to 5"},
      {"compound": "CN1CCC(N(C(=O)c2cccs2)c2ccn(-c3cccc(N(C)C)c3)n2)CC1", "Ki": "0.5 to 5"},
      {"compound": "COc1cccc(-n2ccc(N(C(=O)c3ccsc3)C3CCN(C)CC3)n2)c1", "Ki": "0.5 to 5"},
      {"compound": "CN1CCC(N(C(=O)c2cccs2)c2ccn(-c3ccncc3)n2)CC1", "Ki": "0.5 to 5"},
      {"compound": "CCOc1ccc(-c2cncc(N(C(=O)c3cccs3)C3CCN(Cc4ccccc4)CC3)n2)cc1", "Ki": "> 5"},
      {"compound": "CN1CCC(N(C(=O)c2cccs2)c2ccn(-c3ccnn3C)n2)CC1", "Ki": "> 5"},
      {"compound": "Cc1nnc(-c2cccc(-c3cccc(N(C(=O)c4cccs4)C4CCN(C)CC4)n3)c2)o1", "Ki": "0.1 to 0.5"},
      {"compound": "Cc1nnc(-c2cccc(-n3ccc(N(C(=O)c4cccs4)C4CCN(Cc5ccc(F)c(F)c5)CC4)n3)c2)o1", "Ki": "0.1 to 0.5"},
      {"compound": "Cc1ccccc1-n1ccc(N(C(=O)c2cccs2)C2CCN(C)CC2)n1", "Ki": "0.5 to 5"},
      {"compound": "CCOc1cccc(C(=O)N(c2ccn(-c3cccc(-c4nnc(C)o4)c3)n2)C2CCN(C)CC2)c1", "Ki": "> 5"},
      {"compound": "CCOc1ccc(-n2ccc(N(C(=O)c3cccs3)C3CCN(C)CC3)n2)cc1", "Ki": "> 5"},
      {"compound": "O=C(c1ccc(Cl)s1)N(c1ccn(-c2ccccc2)n1)C1CCN(Cc2ccccc2)CC1", "Ki": "> 5"},
      {"compound": "COc1ccc(Cl)c(-n2ccc(N(C(=O)c3cccs3)C3CCN(C)CC3)n2)c1", "Ki": "> 5"},
      {"compound": "COc1cccc(-n2ccc(N(C(=O)c3cccc(O)c3)C3CCN(C)CC3)n2)c1", "Ki": "> 5"},
      {"compound": "O=C(c1ccc(F)s1)N(c1ccn(-c2ccccc2)n1)C1CCN(Cc2ccccc2)CC1", "Ki": "0.5 to 5"},
      {"compound": "CCOc1ccc(-n2ccc(N(C(=O)c3nccs3)C3CCN(Cc4ccccc4)CC3)n2)cc1", "Ki": "> 5"},
      {"compound": "N#Cc1cccc(-n2ccc(N(C(=O)c3cccs3)C3CCN(Cc4ccccc4)CC3)n2)c1", "Ki": "0.5 to 5"},
      {"compound": "Cc1nnc(-c2cccc(-n3ccc(N(C(=O)c4cccs4)C4CCN(C)CC4)n3)c2)o1", "Ki": "< 0.1"}
    ]}
  ]
}
